The source of these data is patent publication US20200397840A1, “Cognitive Function Improvement Agent” (Kao Corporation, priority 2017, published 2020).

Assay [1] has as its system senescence-accelerated mice (SAM) P8. The assay is described as follows: Novel object recognition test in senescence-accelerated mice. Format: in vivo. Particulars: SAMP8 mice, 50 mg/kg of body weight/day orally for 4 weeks, vs control group (FIG. 5). The procedure: Male senescence-accelerated mice (SAM) P8 (Japan SLC, inc.), which developed memory and learning impairment associated with age, were transferred at 27 weeks old, and used after a 5-day quarantine period and a 3-day acclimating period. In the acclimating period the body weight was measured and the mice were grouped so that the body weight of each group was equivalent to each other. As a test substances injection water (Otsuka Pharmaceutical Co., Ltd.) of mannitol (50 mg/kg of body weight/day, SAC Corporation) was orally administered once per day for 4 weeks (28 to 32 weeks old) using a stomach tube. After administration of the test substance for 4 weeks (33 weeks old), memory and learning function was assessed. […] The behavior of the mice was video-recorded for 10 minutes and the time of recognition (the time for which the nose or the forelimb of the mouse touched each object) was measured (training trial). […] The behavior of the mice was video-recorded for 5 minutes and the time of recognition was measured (retention trial). The score of memory and learning ability was assessed based on the ratio of recognition of novel objects in the retention trial (see the following equation). […] When the P value was 0.05 or less, the difference was determined to be statistically significant.

Assay [2] concerns healthy subjects of men and women. In words: CNS Vital Signs cognitive function assessment after single intake in healthy men and women. Format: in vivo, human. Particulars: single intake of 1.5 g mannitol with lunch, vs control diet, crossover (FIG. 6). The procedure:
Cognitive function of 4 healthy subjects of men and women. (average age 38.5 years old±9.5, 3 men and a person) after the intake of a control diet and a diet containing 1.5 g of mannitol powder (D-mannitol, B Food Science Co., Ltd.) (hereinafter described as a mannitol diet) was assessed. […] The following cognitive function tests were performed before the intervention (before lunch, from 10:10) and after the intervention (after lunch, from 12:40). The tests were performed in a crossover design with a washout period of 1 week or more. In two days of the tests in total the same subject had both the control diet and the mannitol diet and measurement was performed. Control diet: instant cup udon noodle (458 kcal) Mannitol diet: instant cup udon noodle to which 1.5 g (2.4 kcal) of mannitol powder was added (460.4 kcal) CNS Vital Signs (CNS Vital Signs, LLC, Japanese version) was used for the assessment of cognitive function (Archives of Clinical Neuropsychology, 2006, 21:7:623-643). In the present Examples, cognitive function was assessed based on the following 7 tests. First, 15 words are presented, one by one, on a PC screen every 2 seconds, and the subject memorizes them. Immediately or about 30 minutes after that, a larger number of words including 15 new words are presented, and the subject presses the space bar when a word they have memorized appears. First, 15 geometric figures are presented, one by one, on a PC screen every 2 seconds, and the subject memorizes them. Immediately or about 30 minutes after that, a larger number of figures including 15 new figures are presented, and the subject presses the space bar when a figure they have memorized appears. The subject presses the space bar with his/her right index finger as fast as possible for 10 seconds. The test is repeated with the left hand. A table containing combinations of a symbol and a number is presented above on a PC screen. The subject types in the number that corresponds to the symbol in an empty box below on the screen. The stroop test has three parts. In the first part, the words RED, YELLOW, BLUE and GREEN printed in black appear at random on the screen. The subject presses the space bar as soon as the word appears (simple reaction). In the second part, the words RED, YELLOW, BLUE and GREEN appear on the screen, printed in color. The subject presses the space bar when the color of the word matches the meaning of the word (complex reaction). In the third part, the words RED, YELLOW, BLUE and GREEN appear on the screen, printed in color. […] Three figures (a square or a circle in red or blue) appear on the screen, one on top, two on the bottom. The subject is instructed to follow the rule of matching figures by “shape” or “color” (“match figures by shape” or “match figures by color”), and selects one of two bottom figures, that matches the top figure. The rule of matching instructed (“match figures by shape” or “match figures by color”), and colors (red and blue) and shapes (a circle and a square) of the three figures are changed at random. The subject responds to only “B” and press the space bar, out of letters presented at random on the screen, but not to any other letter. The test continues for 5 minutes. Standardized scores of cognitive function domains were calculated from the results of the tests based on the method of calculation of CNS Vital Signs. The standardized score is calculated by normalization with an average value of 100 and standard deviation of 15 for the subject's age group (in 5-year increments). The results of the tests shown in Table 4 are reflected in the calculation of scores for the respective cognitive function domains. The values obtained are in the average value±standard deviation. To compare the average value of the control diet intake group (control group) with that of the mannitol diet intake group (mannitol-supplemented group), paired t-test was used.

Turning to `OC[C@@H](O)[C@@H](O)[C@H](O)[C@H](O)CO` [mannitol], in assay [1], the “ratio of recognition of novel objects (object recognition and learning ability)” value is “increase”. Further, in assay [2], the “standardized score of composite memory” value is on record as “significantly higher (P<0.05)”, the “standardized score of motor speed” value is reported as “tended to be higher (P<0.1)”, the “standardized score of neurocognitive index” value is listed as “significantly higher (P<0.05)” and the “standardized score of processing speed” value was “significantly higher (P<0.05)”. Moreover, in assay [2], the “standardized score of psychomotor speed” value was “significantly higher (P<0.05)”, the “standardized score of reaction time” value is listed as “tended to be higher (P<0.1)” and the “standardized score of verbal memory” value was “tended to be higher (P<0.1)”.
